High-throughput results: PubChem BioAssay, National Center for Advancing Translational Sciences (NCATS)
Rango release inh – qHTS Assay for Inhibitors of RanGTP induced Rango (Ran-regulated importin-beta cargo) - Importin beta complex dissociation | Biochemical FRET Rango-importin beta, RanGTP-induced dissociation | Potency, µM (series often up to 46.1 µM), for inactives: at the highest dose activity change, negative = inhibition | 340,000 tested, 0.071% active | AID 540253, 2011; note: potency is the fitted concentration of half-maximal effect; % of control where 0% means no effect; nearly all actives have a fitted effect of over 45% in size
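Rango/importin beta premix (0.1/0.25 uM final), PBS + 1 mM DTT + 0.02% Tween-20 + 0.1% BSA; cpd 5 min RT; FRET pre-read; + RanGTP-RCC1 (0.6 uM Ran, 2 mM GTP, 0.2 uM RCC1); 45 min RT; FRET post-read, ex 430, em 486/530 nm.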
MmCpn inh – Inhibitors of TCP-1 ring complex (TRiC) of Methanococcus maripaludis (MmCpn): qHTS; Chaperonin Mm-Cpn (Methanococcus maripaludis); purified Mm-Cpn ATPase, ADP Transcreener TR-FRET; Potency, µM (titrated, usually from 76.9 µM), inactives show top-dose activity, negative = inhibition, hits mostly inhibitors; 330,000 tested, 0.031% active; active = well fitted inhibition curve with a large enough effect; inconclusive = small, poorly fitted or top-dose-only effect; note: potency is the fitted concentration of half-maximal effect; % is set by controls: 0 for no effect and ±100 for the full control effect; nearly all actives have a fitted effect of over 80% in size
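Purified archaeal Mm-CPN (25nM final) preincubated 10 min at 37degC with compound, then 10uM ATP for 30 min at 37degC; ADP measured by HTRF Transcreener TR-FRET; buffer 30 mM TRIS pH 7.4, 100mM KCl, 5mM MgCl2, 1mM DTT.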
KCNH2 WT inh – qHTS for Inhibitors of KCHN2 3.1: Wildtype qHTS. Voltage-gated inwardly rectifying potassium channel KCNH2 (Homo sapiens), Q12809. U2OS, BacMam KCNH2, thallium flux FluxOr; hits give low values. activity change, % at 1.84 µM. 340,000 tested, 0.37% active. AID 720551, 2013;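 active = maximum activity change below -70%; inconclusive = maximum activity change between -70% and -50%; inactive = maximum activity change above -50%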; note: % is set by controls: 0 for no effect and ±100 for the full control effect
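U2OS cells were transduced with wild-type KCNH2 virus (2.03 x 10^8 / mL) for 4 h at room temperature, then cultured overnight at 37 C. Thallium flux was read with FluxOr dye. Rate constants were normalized to DMSO controls.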
CCT modulator – High-Throughput Screening for Modulators of Cytosolic Chaperonin Activity; activity change, % (no concentration beside the values), hits read low; 360,000 tested, 0.3% active; purified chaperonin ATPase assay, HTRF ADP detection, 30 min; in the data active = activity change below about -30%; note: % is set by controls: 0 for no effect and ±100 for the full control effect
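First, chaperonin was dispensed at 40 nM or 20 nM final depending on batch activity. Next, compounds were pinned at 76 uM and ATP added at 10 uM. After 30 min at 37 °C, ADP detection reagents ran 30 min at ambient temperature.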
Rango-impB inh – qHTS Assay for Inhibitors of Rango (Ran-regulated importin-beta cargo) - Importin beta complex formation | Rango CFP/YFP FRET sensor + importin beta, 45 min | Potency, µM (titrated, usually from 92.2 µM), for the others: at the top dose inhibition of complex formation | 340,000 tested, 0.031% active;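 note: potency is the fitted concentration of half-maximal effect; 0% = DMSO wells and 100% = buffer wells lacking importin beta; nearly all actives have a fitted effect of over 15% in size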
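FRET biosensor (snurportin 1 IBB flanked by EYFP and cerulean), 50 nM, with compound 5 min, then 0.125 microM importin beta in PBS, 1 mM DTT, 0.02% Tween-20, 0.1% BSA. CFP/YFP ratio read after 45 min at room temperature; pre-read flags interference.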
KCNH2 3.1 inh – qHTS for Inhibitors of KCHN2 3.1: Mutant qHTS | Potassium voltage-gated channel subfamily H member 2, brain isoform KCNH2 3.1 (human) | 340,000 tested, 0.95% active | U2OS KCNH2 3.1, thallium flux FluxOr; hits give low values | activity change, % (tested at about 1.8 µM) | AID 720553, 2013;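 active = maximum activity change below -70%; inconclusive = maximum activity change from -70% to -50%; inactive = maximum activity change above -50%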;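 note: thallium influx rate constant from kinetic fluorescence after stimulation buffer; % is set by controls: 0 for no effect and ±100 for the full control effect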
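Steps: virus added to U2OS suspension (4 h, RT, dark); medium with 10% FBS added, cells plated, 37 C overnight; FluxOr/Red40 loading buffer 45 min RT; stimulation buffer, 2 min kinetic read; rate constant normalized.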
The depositor's hits bear a star; ? = inconclusive; / = not tested or not shown. Sampled rows, rich in hits. Any-hit rate of the full collection: about 1.4%. Unless noted, calls come from the whole dose curve.

Compound | MmCpn inh | CCT modulator | KCNH2 3.1 inh | KCNH2 WT inh | Rango release inh | Rango-impB inh
CCOC(=O)c1cc(Br)c(=O)n2ccccc12 | 28µM* | -2 | -17 | -30 | -12% | -3%
CCOC(=O)c1cc(C(C)=O)n2ccccc12 | 1% | 3 | 0 | -6 | 3% | -3%
Cn1c(CNC(=O)C(Cc2ccccc2)NC(=O)c2cccc(F)c2)cc(=O)n(C)c1=O (centres undefined) | -1% | 1 | 1 | -4 | -2% | -1%
CCn1c(-c2cc(-c3cc(C)ccc3C)nc3ccccc23)n[nH]c1=S | 0% | -72* | -3 | -2 | 1% | 3%
CCCCn1c(N)c(N(CC)C(=O)COc2ccc(C#N)cc2)c(=O)[nH]c1=O | 2% | 0 | 20 | -1 | -17% | -1%
CC(Oc1ccc(Br)cc1)C(=O)N1CCC(C(N)=O)CC1 (centres undefined) | 0% | 2 | -71* | -5 | 2% | 0%
CC(Oc1ccc(Br)cc1)C(=O)N1CCN(c2ccccn2)CC1 (centres undefined) | -1% | -3 | 12 | -8 | 19% | -7%
Nc1ccc(-c2nc3c(ccc4ccccc43)[nH]2)cc1 | -12% | 1 | 26 | 0 | -15% | ?
Cc1cc(C(=O)OCC(=O)Nc2cc(C)on2)c2ccccc2n1 | 0% | -35* | 2 | -4 | -2% | -3%
COc1ccc(OC)c(-c2csc(NC(=O)C3COc4ccccc4O3)n2)c1 (centres undefined) | 1% | -1 | -1 | -1 | 13% | 1%
O=C(Nc1nc(-c2nc3ccccc3s2)cs1)C1COc2ccccc2O1 (centres undefined) | -25% | -1 | -83* | -6 | -7% | -2%
CC(C)C[C@H]1CN(CCCC[C@@H]2CNC(=O)C(=O)N2CCc2ccccc2)C(=O)C(=O)N1Cc1ccccc1 | / | -2 | / | / | / | /
N#Cc1c(-c2ccc(Cl)cc2)n(O)c2ccccc12 | / | -3 | -18 | 69 | -3% | -4%
CCN(CC)C(=O)Cn1cc(C(=O)C(=O)N2CCN(C)CC2)c2ccccc21 | -1% | 0 | 3 | 0 | 2% | 1%
CCN(CC)C(=O)Cn1cc(C(=O)C(=O)N2CC=C(c3ccccc3)CC2)c2ccccc21 | 0% | -4 | -8 | 12 | -1% | 37µM*
Cc1ccc(C)c(S(=O)(=O)NCCN2CCOCC2)c1 | -1% | -31* | 1 | -6 | 1% | 3%
Cc1ccc(C)c(S(=O)(=O)NCCCN2CCOCC2)c1 | 1% | -1 | -5 | -2 | -15% | 7%
COc1cc(/C=C2\SC(=O)NC2=O)ccc1OCC(=O)N1CCOCC1 | -1% | 0 | 3 | -4 | -4% | -3%
CCc1ccccc1N(CC(=O)N1CCCC1)S(C)(=O)=O | 2% | -1 | 2 | -9 | -10% | 0%
CCc1ccccc1N(CC(=O)N1CCc2ccccc2C1)S(C)(=O)=O | 1% | -31* | 11 | 2 | 7% | 0%
COC(=O)C1=C(C)N(Cc2ccccc2)C(=NCCc2cccnc2)N[C@H]1c1ccc(Br)cc1 | 1% | 0 | -89* | -48 | 0% | -5%
CCc1ccc(NC(=O)COC(=O)/C=C/c2ccco2)cc1 | -1% | 0 | -121* | 18 | -10% | ?
O=C(Cc1ccccc1[N+](=O)[O-])Nc1nccs1 | -2% | -33* | -14 | -1 | -2% | 3%
C=CCn1c(CCNC(=O)c2cccs2)nnc1SCC(=O)c1ccc(Cl)cc1 | -15% | 2 | -98* | 26 | 6% | 0%
COc1cccc(NC(=O)Cn2nnc(C(=O)NCCc3ccccc3)c2N)c1 | -1% | -1 | -8 | -7 | 10% | 0%
COc1ccc(C)cc1S(=O)(=O)N(C)CC(=O)N1CCCC1 | 0% | -3 | ? | -10 | -6% | 1%
Clc1ccc(-c2csc(N/N=C/c3cccnc3)n2)c(Cl)c1 | -2% | 2 | -112* | ? | -4% | 0%
CC(Oc1ccccc1F)c1nnc(SCC(=O)N(c2ccccc2)C2CCS(=O)(=O)C2)o1 (centres undefined) | 0% | 2 | 5 | 7 | 12% | 3%
CC1CCC(NC(=O)C2CCN(c3nc4ccccc4s3)CC2)CC1 (centres undefined) | 0% | -36* | 15 | 3 | 4% | 2%
Cc1ccc2nc(N3CCC(C(=O)NC4CCCCC4)CC3)sc2c1 | -2% | -2 | 2 | 2 | 0% | -4%

Exported with values under each structure: entries from further up
Values in the order: MmCpn inh	CCT modulator	KCNH2 3.1 inh	KCNH2 WT inh	Rango release inh	Rango-impB inh
> CCc1ccc(NC(=O)COC(=O)/C=C/c2ccco2)cc1
    -1%	0	-121*	18	-10%	?
> O=C(Cc1ccccc1[N+](=O)[O-])Nc1nccs1
    -2%	-33*	-14	-1	-2%	3%
> C=CCn1c(CCNC(=O)c2cccs2)nnc1SCC(=O)c1ccc(Cl)cc1
    -15%	2	-98*	26	6%	0%

(list continues)
Compound | MmCpn inh | CCT modulator | KCNH2 3.1 inh | KCNH2 WT inh | Rango release inh | Rango-impB inh
CSc1ccccc1NC(=O)c1ccco1 | -1% | 1 | 27 | -281* | 3% | 0%
COc1ccccc1NC(=O)c1c(NC(=O)c2ccco2)sc2c1CCC2 | -3% | -3 | -10 | 1 | 21µM* | ?
O=C(Nc1ccccc1NC(=O)c1ccco1)c1ccco1 | -1% | 0 | / | -1 | 3% | 0%
Cc1noc(C)c1-c1csc(N2CCC(C(N)=O)CC2)n1 | -4% | / | / | / | -7% | 3%
COc1ccc2c(c1)CCc1c(C(=O)Nc3c(C)nn(Cc4ccccc4)c3C)noc1-2 | 0% | 0 | -71* | -6 | 5% | 2%
Cc1nn(Cc2ccc(Cl)cc2)c(C)c1NC(=O)c1noc2c1CCc1ccccc1-2 | 1% | 2 | 5 | -20 | 29% | 1%
CC(=O)c1ccc2noc(-c3cccc(F)c3)c2c1 | -4% | -4 | -83* | 7 | -11% | ?
COc1ccc(NC(=O)/C(=C\c2ccc(OS(=O)(=O)c3ccc(C)cc3)cc2)NC(=O)c2ccccc2)cc1 | 0% | 2 | -27 | -3 | 2% | ?
Cc1ccc(S(=O)(=O)Oc2ccc(/C=C(/NC(=O)c3ccccc3)C(=O)Nc3ccccc3)cc2)cc1 | 3% | -67* | -13 | 0 | 15% | -1%
COc1ccc(N2CCN(C(=O)Cc3coc4cc(C)ccc34)CC2)cc1 | -4% | -2 | 8 | -3 | 5% | 2%
Cc1ccc2c(CC(=O)Nc3ccc(N4CCN(C)CC4)cc3C)coc2c1 | -1% | -1 | -83* | 31 | -7% | 0%
COc1cccc(COC(=O)c2ccc(S(=O)(=O)N3CCC(C)CC3)cc2)c1OC | 1% | -61* | -12 | 2 | 10% | -1%

Ordered by value in Rango-impB inh (highest first): three of the compounds above
Structure,MmCpn inh,CCT modulator,Rango release inh,Rango-impB inh
CC(Oc1ccccc1F)c1nnc(SCC(=O)N(c2ccccc2)C2CCS(=O)(=O)C2)o1 (centres undefined),0%,2,12%,3%
CCc1ccccc1N(CC(=O)N1CCc2ccccc2C1)S(C)(=O)=O,1%,-31*,7%,0%
CCOC(=O)c1cc(Br)c(=O)n2ccccc12,28µM*,-2,-12%,-3%
